From US9051265B2, “N-benzylindole modulators of PPARG” (The Scripps Research Institute, priority 2011, dated 2015) come the findings set out here.

Amino acid sequences for entries named in this document (tags omitted). Residues count along the entry.
UniProt P37231, 238-503: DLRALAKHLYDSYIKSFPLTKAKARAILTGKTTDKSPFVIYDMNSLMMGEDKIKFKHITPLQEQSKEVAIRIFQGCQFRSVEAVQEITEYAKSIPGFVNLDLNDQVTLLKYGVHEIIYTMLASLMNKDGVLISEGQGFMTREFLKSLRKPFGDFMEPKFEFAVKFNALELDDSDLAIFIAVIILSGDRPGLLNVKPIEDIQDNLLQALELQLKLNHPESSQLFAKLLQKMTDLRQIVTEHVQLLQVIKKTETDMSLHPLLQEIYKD

SMILES strings stand for the structures.

The target in the experiment is Gal4-PPARg (human PPAR LBD fused to GAL4 DNA-binding domain) (Homo sapiens (Human), UniProt P37231). The experiment is classed as cell-based.

Turning to `CN(CCOc1ccc(CC2SC(=O)NC2=O)cc1)c1ccccn1` (stereo not shown) [rosiglitazone], the “activation of the UAS-luc reporter” value is “about 100 fold”.
